# Test results: paper PMC8758481, “Astroglial tracer BU99008 detects multiple binding sites in Alzheimer’s disease brain” (Molecular Psychiatry, 2021)
# System: imidazoline-2 binding sites (I2BS)
# Experiment: ^3H-BU99008 competition binding with unlabelled BU99008 in the presence of MAO B inhibitors
# Design: species or system human
# Procedure: A similar protocol as saturation binding assay was performed after 1 h incubation and the binding was quantified using the scintillation counter.
# The competition binding data was fitted and analysed using non-linear regression competitive-binding function of GraphPad Prism 8.3 software to determine IC50 (half-maximal inhibitory concentration) values.
structure (smiles),measurement,setting,value
"C#CCN(C)[C@H](C)Cc1ccccc1 [deprenyl, (R)-(-)-Deprenyl]",effect on binding of BU99008 to the SH binding sites,"CN, ^3H-BU99008 competition",completely blocked
same,decrease in ^3H-BU99008 total binding,"CN, lower concentration ranges [10^-14-10^-9]",15–30%
same,effect on binding of BU99008 to HA binding sites,"both CN and AD cases, increasing concentrations of inhibitor",not affected
